Test results as given in patent US10183938B2, “Geminal substituted quinuclidine amide compounds as agonists of α-7 nicotonic acetylcholine receptors” (AXOVANT SCIENCES GMBH, priority 2014, dated 2019).
Structures can show the parent of a compound that is named as a salt.

Protein sequences, listed by entry. Tags and fused reporters are not part of them. Residues count along the entry.
UniProt P36544, 23-502 limits assumed: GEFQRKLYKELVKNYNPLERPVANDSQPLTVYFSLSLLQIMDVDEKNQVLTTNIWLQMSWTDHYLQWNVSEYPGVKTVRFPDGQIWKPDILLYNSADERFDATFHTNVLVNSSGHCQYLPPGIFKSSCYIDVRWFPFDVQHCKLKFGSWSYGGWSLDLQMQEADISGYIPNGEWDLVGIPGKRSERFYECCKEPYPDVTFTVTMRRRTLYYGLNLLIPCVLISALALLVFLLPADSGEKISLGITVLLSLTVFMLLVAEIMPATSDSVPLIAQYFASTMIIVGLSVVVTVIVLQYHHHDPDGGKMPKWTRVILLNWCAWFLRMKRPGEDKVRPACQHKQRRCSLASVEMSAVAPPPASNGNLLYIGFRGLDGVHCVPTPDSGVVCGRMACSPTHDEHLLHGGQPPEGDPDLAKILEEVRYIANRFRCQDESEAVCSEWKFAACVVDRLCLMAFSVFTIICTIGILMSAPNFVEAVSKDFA

The compounds below were run against human α7 nAChR (Homo sapiens (Human), UniProt P36544) (assay: Human α7 nAChR binding assay ([125I]-αBungarotoxin competition binding)). Conditions: read-out: h-a7 Ki; SH-SY5Y membranes, 0.05 nM [125I]-αBgt, Cheng Prusoff.

Row | Compound | Ki
1 | CC1(C)[C@H](NC(=O)c2ccc3occc3n2)C2CCN1CC2 [(R)-37, (R)—N-(2,2-dimethylquinuclidin-3-yl)furo[3,2-b]pyridine-5-carboxamide hydrochloride] | > 30 µM
2 | Cn1cnc2cc(C(=O)N[C@@H]3C4CCN(CC4)C3(C)C)ccc21 [(R)-42, (R)—N-(2,2-dimethylquinuclidin-3-yl)-1-methyl-1H-benzo[d]imidazole-5-carboxamide hydrochloride] | > 30 µM
3 | CC1(C)[C@H](NC(=O)c2cc3ccc(N4CCOCC4)cc3s2)C2CCN1CC2 [(R)-44, (R)—N-(2,2-dimethylquinuclidin-3-yl)-6-morpholinobenzo[b]thiophene-2-carboxamide hydrochloride] | > 30 µM
4 | CC1(C)[C@H](NC(=O)c2cc3ccc(N4CCC(F)(F)CC4)cc3s2)C2CCN1CC2 [(R)-45, (R)-6-(4,4-difluoropiperidin-1-yl)-N-(2,2-dimethylquinuclidin-3-yl)benzo[b]thiophene-2-carboxamide hydrochloride] | > 30 µM
5 | CC1(C)[C@H](NC(=O)c2cc3ccc(S(C)(=O)=O)cc3s2)C2CCN1CC2 [(R)-48, (R)—N-(2,2-dimethylquinuclidin-3-yl)-6-(methylsulfonyl)benzo[b]thiophene-2-carboxamide hydrochloride] | > 30 µM
6 | CC1(C)[C@H](NC(=O)c2cc3ccc(C4CCOCC4)cc3s2)C2CCN1CC2 [(R)-50, (R)—N-(2,2-dimethylquinuclidin-3-yl)-6-(tetrahydro-2H-pyran-4-yl)benzo[b]thiophene-2-carboxamide hydrochloride] | > 30 µM
7 | O=C(N[C@@H]1C2CCN(CC2)C12CC2)c1cnn2ncccc12 [(R)-80, (R)—N-(1′-azaspiro[cyclopropane-1,2′-bicyclo[2.2.2]octan]-3′-yl)pyrazolo[1,5-b]pyridazine-3-carboxamide hydrochloride] | > 30 µM
8 | O=C(N[C@@H]1C2CCN(CC2)C12CC2)c1cnc2occc2c1 [(R)-89, (R)—N-(1′-azaspiro[cyclopropane-1,2′-bicyclo[2.2.2]octan]-3′-yl)furo[2,3-b]pyridine-5-carboxamide hydrochloride] | > 30 µM
9 | Cn1cnc2cc(C(=O)N[C@@H]3C4CCN(CC4)C34CC4)ccc21 [(R)-95, (R)-1-methyl-N-(1′-azaspiro[cyclopropane-1,2′-bicyclo[2.2.2]octan]-3′-yl)-1H-benzo[d]imidazole-5-carboxamide hydrochloride] | > 30 µM
10 | O=C(N[C@@H]1C2CCN(CC2)C12CC2)c1cc2ccc(-n3ccnn3)cc2s1 [(R)-98, (R)—N-(1′-azaspiro[cyclopropane-1,2′-bicyclo[2.2.2]octan]-3′-yl)-6-(1H-1,2,3-triazol-1-yl)benzo[b]thiophene-2-carboxamide hydrochloride] | > 30 µM
11 | O=C(N[C@@H]1C2CCN(CC2)C12CC2)c1cc2ccc(N3CCOCC3)cc2s1 [(R)-99, (R)-6-morpholino-N-(1′-azaspiro[cyclopropane-1,2′-bicyclo[2.2.2]octan]-3′-yl)benzo[b]thiophene-2-carboxamide hydrochloride] | > 30 µM
12 | CS(=O)(=O)c1ccc2cc(C(=O)N[C@@H]3C4CCN(CC4)C34CC4)sc2c1 [(R)-103, (R)-6-(methylsulfonyl)-N-(1′-azaspiro[cyclopropane-1,2′-bicyclo[2.2.2]octan]-3′-yl)benzo[b]thiophene-2-carboxamide hydrochloride] | > 30 µM
13 | CC(C)c1cccc2cc(C(=O)N[C@@H]3C4CCN(CC4)C34CC4)sc12 [(R)-166, (R)-7-isopropyl-N-(1′-azaspiro[cyclopropane-1,2′-bicyclo[2.2.2]octan]-3′-yl)benzo[b]thiophene-2-carboxamide hydrochloride] | 0.623 µM
14 | O=C(N[C@@H]1C2CCN(CC2)C12CC2)c1cc2cc(F)c(Cl)cc2s1 [(R)-172, (R)-6-chloro-5-fluoro-N-(1′-azaspiro[cyclopropane-1,2′-bicyclo[2.2.2]octan]-3′-yl)benzo[b]thiophene-2-carboxamide hydrochloride] | 0.445 µM
15 | Cl.Cn1cnc2ccc(C(=O)N[C@@H]3C4CCN(CC4)C3(C)C)cc21 [(R)-206, (R)-N-(2,2-dimethylquinuclidin-3-yl)-1-methyl-1H-benzo[d]imidazole-6-carboxamide hydrochloride] | > 30 µM
16 | CC1(C)[C@H](NC(=O)c2cc3ccc(-n4ccnn4)cc3s2)C2CCN1CC2.Cl [(R)-208, (R)-N-(2,2-dimethylquinuclidin-3-yl)-6-(1H-1,2,3-triazol-1-yl)benzo[b]thiophene-2-carboxamide hydrochloride] | > 30 µM
17 | CC1(C)[C@@H](NC(=O)c2ccc3occc3c2)C2CCN1CC2 [(S)-6, (S)—N-(2,2-dimethylquinuclidin-3-yl)benzofuran-5-carboxamide hydrochloride] | > 30 µM
18 | CC1(C)[C@@H](NC(=O)c2cc3ccc(C#N)cc3s2)C2CCN1CC2 [(S)-9, (S)-6-cyano-N-(2,2-dimethylquinuclidin-3-yl)benzo[b]thiophene-2-carboxamide hydrochloride] | > 30 µM
19 | CC1(C)[C@@H](NC(=O)c2cc3ccc(C(F)(F)F)cc3s2)C2CCN1CC2 [(S)-10, (S)—N-(2,2-dimethylquinuclidin-3-yl)-6-(trifluoromethyl)benzo[b]thiophene-2-carboxamide hydrochloride] | > 30 µM
20 | CC1(C)[C@@H](NC(=O)c2cc3cc(Cl)ccc3s2)C2CCN1CC2 [(S)-13, (S)-5-chloro-N-(2,2-dimethylquinuclidin-3-yl)benzo[b]thiophene-2-carboxamide hydrochloride] | > 30 µM

Row | Compound | Ki
21 | CC1(C)[C@@H](NC(=O)c2cc3cc(Cl)c(Cl)cc3s2)C2CCN1CC2 [(S)-14, (S)-5,6-dichloro-N-(2,2-dimethylquinuclidin-3-yl)benzo[b]thiophene-2-carboxamide hydrochloride] | > 30 µM
22 | Cc1ccc2sc(C(=O)N[C@H]3C4CCN(CC4)C3(C)C)cc2c1 [(S)-16, (S)—N-(2,2-dimethylquinuclidin-3-yl)-5-methylbenzo[b]thiophene-2-carboxamide hydrochloride] | > 30 µM
23 | CC1(C)[C@@H](NC(=O)c2cc3cc(C(F)(F)F)ccc3s2)C2CCN1CC2 [(S)-17, (S)—N-(2,2-dimethylquinuclidin-3-yl)-5-(trifluoromethyl)benzo[b]thiophene-2-carboxamide hydrochloride] | > 30 µM
24 | CC1(C)[C@@H](NC(=O)c2cc3ccc(C4CC4)cc3s2)C2CCN1CC2 [(S)-18, (S)-6-cyclopropyl-N-(2,2-dimethylquinuclidin-3-yl)benzo[b]thiophene-2-carboxamide hydrochloride] | 16 µM
25 | CC1(C)[C@@H](NC(=O)c2cc3cc(C4CC4)ccc3s2)C2CCN1CC2 [(S)-19, (S)-5-cyclopropyl-N-(2,2-dimethylquinuclidin-3-yl)benzo[b]thiophene-2-carboxamide hydrochloride] | > 30 µM
26 | COc1ccc2sc(C(=O)N[C@H]3C4CCN(CC4)C3(C)C)cc2c1 [(S)-21, (S)—N-(2,2-dimethylquinuclidin-3-yl)-5-methoxybenzo[b]thiophene-2-carboxamide hydrochloride] | > 30 µM
27 | CC1(C)[C@@H](NC(=O)c2cc3c(cn2)OCCO3)C2CCN1CC2 [(S)-23, (S)—N-(2,2-dimethylquinuclidin-3-yl)-2,3-dihydro-[1,4]dioxino[2,3-c]pyridine-7-carboxamide hydrochloride] | > 30 µM
28 | CC1(C)[C@@H](NC(=O)c2cnn3ncccc23)C2CCN1CC2 [(S)-27, (S)—N-(2,2-dimethylquinuclidin-3-yl)pyrazolo[1,5-b]pyridazine-3-carboxamide hydrochloride] | > 30 µM
29 | CC1(C)[C@@H](NC(=O)c2cc3cccnc3s2)C2CCN1CC2 [(S)-28, (S)—N-(2,2-dimethylquinuclidin-3-yl)thieno[2,3-b]pyridine-2-carboxamide hydrochloride] | > 30 µM
30 | CC1(C)[C@@H](NC(=O)c2nc3ccccc3s2)C2CCN1CC2 [(S)-29, (S)—N-(2,2-dimethylquinuclidin-3-yl)benzo[d]thiazole-2-carboxamide hydrochloride] | > 30 µM
31 | O=C(N[C@H]1C2CCN(CC2)C12CC2)c1cc2c(cn1)OCCO2 [(S)-76, (S)—N-(1′-azaspiro[cyclopropane-1,2′-bicyclo[2.2.2]octan]-3′-yl)-2,3-dihydro-[1,4]dioxino[2,3-c]pyridine-7-carboxamide hydrochloride] | > 30 µM
32 | O=C(N[C@H]1C2CCN(CC2)C12CC2)c1cnn2ncccc12 [(S)-80, (S)—N-(1′-azaspiro[cyclopropane-1,2′-bicyclo[2.2.2]octan]-3′-yl)pyrazolo[1,5-b]pyridazine-3-carboxamide hydrochloride] | > 30 µM
33 | O=C(N[C@H]1C2CCN(CC2)C12CC2)c1cc2cccnc2s1 [(S)-81, (S)—N-(1′-azaspiro[cyclopropane-1,2′-bicyclo[2.2.2]octan]-3′-yl)thieno[2,3-b]pyridine-2-carboxamide hydrochloride] | > 30 µM
34 | O=C(N[C@H]1C2CCN(CC2)C12CC2)c1nc2ccccc2s1 [(S)-82, (S)—N-(1′-azaspiro[cyclopropane-1,2′-bicyclo[2.2.2]octan]-3′-yl)benzo[d]thiazole-2-carboxamide hydrochloride] | > 30 µM
35 | (R)-N-(1′-azaspiro[cyclopropane-1,2′-bicyclo[2.2.2]octan]-3′-yl)benzo[d]isoxazole-5-carboxamide hydrochloride | 19 µM
36 | (R)-N-(2,2-dimethylquinuclidin-3-yl)-6-(oxetan-3-yl)benzo[b]thiophene-2-carboxamide | > 30 µM
37 | (R)-N-(2,2-dimethylquinuclidin-3-yl)-6-(trifluoromethoxy)benzo[b]thiophene-2-carboxamide hydrochloride | 9.8 µM
38 | (R)-N-(2,2-dimethylquinuclidin-3-yl)benzo[d]isoxazole-5-carboxamide hydrochloride | > 30 µM
39 | (R)-N-(2,2-dimethylquinuclidin-3-yl)benzo[d]isoxazole-6-carboxamide hydrochloride | > 30 µM
